## Binding of CDR-mutated scFvs to a peptide of the spike HR2 region

Binding partner: SARS-CoV-2 spike HR2 peptide, sequence PDVDLGDISGINAS.

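AAYL52 was designed without a model: most single CDR substitutions and a random sample of double and triple ones. Affinity was read by AlphaSeq, a pooled yeast mating assay with surface-displayed partners. Pairs that bind mate more often; barcode pairs of the diploids are counted by sequencing. The ratio of observed to expected reads was calibrated, replicate by replicate, on BCL2-family standards whose Kd was known from biolayer interferometry. There are three technical replicates.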

Each scFv is VH, a 15-residue (Gly4Ser)3 linker, VL, as in the parent Ab-95, and differs from it in the CDRs of the light chain only.
VH: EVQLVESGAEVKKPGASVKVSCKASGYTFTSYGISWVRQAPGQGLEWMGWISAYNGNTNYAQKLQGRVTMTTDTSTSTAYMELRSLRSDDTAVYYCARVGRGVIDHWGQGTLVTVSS
VL: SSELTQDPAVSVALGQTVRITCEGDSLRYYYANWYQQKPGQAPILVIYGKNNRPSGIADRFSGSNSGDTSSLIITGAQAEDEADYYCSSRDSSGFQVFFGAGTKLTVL

Variants are written as CDR1, CDR2 and CDR3 of the light chain (limits as in the source). Parent: EGDSLRYYYAN, GKNNRPS, SSRDSSGFQVF.
Values are log10 of the apparent Kd in nM; lower means stronger binding.
Replicates are averaged; those with no signal do not enter the mean.
"n.d." marks a missing value. The strain was present, yet no cells mated with the target were sequenced in that replicate, which points to weak or no binding.
In this assay the parent's reference entry averaged 2.31; its copy inside this library read 2.25.

CDR-L1 | CDR-L2 | CDR-L3 | log10 Kd, replicates | mean log10 Kd (nM)
EGDSLHYYYAN | GKNNIPS | HSRDSSGFQVF | 1.85 1.90 1.24 | 1.66
EGDSLRYYYAN | FKNNRPS | SSRDSSMFAVF | n.d. n.d. n.d. | n.d.
EGDSLRYYYAN | GKNNRPS | SSSGSSGFPVF | 4.13 n.d. 4.25 | 4.19
EGDWLRYYYAN | GKNNRPN | SSRDSSGFQMF | n.d. 4.66 n.d. | 4.66
EGDSLRYYYAN | GKNKRPW | SSRDSWGFQVF | 4.57 3.56 n.d. | 4.06
EGDSLKYYYAN | HKNNRPS | SSRDSSGFQSF | 3.66 2.94 3.21 | 3.27
EPDSLRYYYAN | MKNNRPS | SSRDSSGFAVF | 5.41 n.d. n.d. | 5.41
IGDSLRYAYAN | GKNNRPS | SERDSSGFQVF | 2.51 2.45 2.02 | 2.33
EGDSLRYYYAN | GKNNAMS | SSRDSSGFQVC | 2.83 2.88 3.45 | 3.05
EGDSLGYYYAN | GKNNYPS | SSRDSSFFQVF | n.d. n.d. n.d. | n.d.
EGWSLRYYYAN | AKNNRPS | SSRDSYGFQVF | n.d. 4.39 4.25 | 4.32
EGDSLRYYYAN | GKNNRPV | SVRRSSGFQVF | 4.11 2.55 2.51 | 3.06
EGDSLRYDYAN | GKNNRPI | ASRDSSGFQVF | 1.88 1.75 1.22 | 1.62
EGDSLRWYYAN | GQNNRPS | SSRDSSHFQVF | 3.33 2.39 3.35 | 3.02
EGDSLRYYYQN | GKINRPS | LSRDSSGFQVF | 3.44 n.d. n.d. | 3.44
EGDSLRYYYAN | GKNNRPF | SSRDSSGCLVF | n.d. 3.95 n.d. | 3.95
EMDTLDYYYAN | GKNNRPS | SSRDSSGFQVF | 3.79 3.43 4.56 | 3.93
EGDELRYYYAN | GKNNRPS | SMIDSSGFQVF | 4.25 n.d. n.d. | 4.25
EGDSLRYYYAN | GKANRPS | SSRQFSGFQVF | 3.93 2.92 4.03 | 3.63
EGDFLKYYYAN | GDNNRPS | SSRDSSGFQVF | 2.62 2.32 2.34 | 2.43
EGHNLRYYYAN | GKNNRPS | SSRDSSGAQVF | 2.29 2.67 2.67 | 2.54
EGDSLRIYYAN | GKVNRPS | SHRDSSGFQVF | 4.96 n.d. n.d. | 4.96
EGDSLRYNYAN | GKNNRWS | SSRMSSGFQVF | 1.63 1.71 1.39 | 1.58
EGDSLRYYYTN | GKNNRPS | SSRDISGFQVF | 1.87 2.64 1.71 | 2.07
EGDSLRYYYAN | GKNWRPS | SDRASSGFQVF | n.d. 5.41 n.d. | 5.41
EGDSLRTYYAN | GKNNRPS | SSRDSYGGQVF | n.d. n.d. 3.27 | 3.27
EGDSLRYYPAN | GKNNHPS | SSRDSSGFQVF | 1.49 1.33 0.94 | 1.25
EGDSLRYYIAN | PKNNRMS | SSRDSSGFQVF | n.d. n.d. n.d. | n.d.
EGDSLNYYYAN | GMNNRPS | SSDDSSGFQVF | 4.63 n.d. n.d. | 4.63
EGDSLRYYYAN | GDNNRPH | SSRDSSGFTVF | 2.62 2.09 2.50 | 2.40
EGDSLRYYYHN | GMNNFPS | SSRDSSGFQVF | n.d. n.d. n.d. | n.d.
EGDSLMDKYAN | GKNNRPS | SSRDSSGFQVF | 1.30 1.26 0.90 | 1.15
EGDSLRYYYAN | GWNNRPS | SSRDSFGNQVF | 3.98 3.51 n.d. | 3.75
EGDSLRYYYAN | GKNNRPS | SPPDSSGFQVL | 4.39 5.49 n.d. | 4.94
EGDSLRYYKAN | SKNNRPS | SSRDSSGFQVG | 3.96 3.84 4.52 | 4.11
EGDSPRYYYAA | GKNNRPF | SSRDSSGFQVF | 3.63 4.37 n.d. | 4.00
PGDSLRYPYAN | GKNNRPI | SSRDSSGFQVF | 3.34 3.44 n.d. | 3.39
EGDSLRYYYAN | GKNNRPS | SYRDVSGFYVF | n.d. 3.47 n.d. | 3.47

For reference, 2 entries of the list once more:

CDR-L1,CDR-L2,CDR-L3,"log10 Kd, replicates",mean log10 Kd (nM)
EGDSLRYYPAN,GKNNHPS,SSRDSSGFQVF,1.49 1.33 0.94,1.25
EGHNLRYYYAN,GKNNRPS,SSRDSSGAQVF,2.29 2.67 2.67,2.54

Nonspecific signal, from three strains lacking the peptide, appeared in 28% of pairings of library AAYL52, centred on 3.91 (5% of these signals below 2.90); values are not corrected for it.

Values reported by Engelhart et al. 2022, doi:10.1038/s41597-022-01779-4 (FLAb copy).